# Assay results from PubChem BioAssay AID488961 (Johns Hopkins Ion Channel Center, 2010).
# Chains of the proteins cited; added tags and fusions are not shown.
# UniProt Q61143, whole entry: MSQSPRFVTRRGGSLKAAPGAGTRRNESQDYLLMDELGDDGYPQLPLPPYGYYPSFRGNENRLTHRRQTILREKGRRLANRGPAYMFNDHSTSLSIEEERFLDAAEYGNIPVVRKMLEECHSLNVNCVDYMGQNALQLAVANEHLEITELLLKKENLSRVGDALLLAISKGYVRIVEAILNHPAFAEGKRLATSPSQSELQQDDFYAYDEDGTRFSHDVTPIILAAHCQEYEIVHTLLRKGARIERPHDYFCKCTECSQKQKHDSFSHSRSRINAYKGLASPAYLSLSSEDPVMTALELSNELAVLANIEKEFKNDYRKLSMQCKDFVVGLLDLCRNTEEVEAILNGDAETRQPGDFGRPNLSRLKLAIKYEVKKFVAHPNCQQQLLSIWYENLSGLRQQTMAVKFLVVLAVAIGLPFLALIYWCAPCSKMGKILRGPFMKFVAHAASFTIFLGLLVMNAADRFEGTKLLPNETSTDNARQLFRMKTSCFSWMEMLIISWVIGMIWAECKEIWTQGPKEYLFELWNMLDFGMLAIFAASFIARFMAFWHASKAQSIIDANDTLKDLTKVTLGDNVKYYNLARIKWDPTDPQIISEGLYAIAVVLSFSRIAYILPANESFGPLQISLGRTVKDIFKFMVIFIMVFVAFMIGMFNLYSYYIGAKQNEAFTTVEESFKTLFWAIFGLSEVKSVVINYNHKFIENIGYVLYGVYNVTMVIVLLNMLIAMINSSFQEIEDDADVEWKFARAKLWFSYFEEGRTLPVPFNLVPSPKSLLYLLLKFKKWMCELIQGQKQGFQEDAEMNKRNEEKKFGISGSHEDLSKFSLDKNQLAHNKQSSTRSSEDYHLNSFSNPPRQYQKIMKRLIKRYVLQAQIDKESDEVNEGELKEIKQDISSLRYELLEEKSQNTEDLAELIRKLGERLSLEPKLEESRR
# This is a selection; strong and weak results do not stand in their true shares. Some tests of the compounds listed are not included; inactive here does not mean inactive elsewhere. Calls of active or inactive are those of the source.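 Rule for the calls: active = ratio signal rise beyond 5 SD above unstimulated control wells' mean, seen in both duplicate runs; inactive = the rest.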
# Molecular target: Short transient receptor potential channel 6 (Mus musculus) (UniProt Q61143)
# Assay: mouse TRPC6 channel activators, confirmation, HEK293 cells, membrane potential dye, duplicate (AID 488961)
# Details: HEK293-TRPC6 membrane potential dye fluorescence, FDSS; at 10 µM
row,SMILES,outcome
1,O=C(OC1CN2CCC1CC2)C(CO)(c1ccccc1)c1ccccc1 (stereo unspecified),inactive
